Molecular target: Inhibitor of nuclear factor kappa-B kinase subunit beta (Homo sapiens, UniProt O14920)

Amino acid sequences for entries named in this document (tags omitted). A change or cut given only in a name is not applied to a line headed by its entry.
UniProt O14920: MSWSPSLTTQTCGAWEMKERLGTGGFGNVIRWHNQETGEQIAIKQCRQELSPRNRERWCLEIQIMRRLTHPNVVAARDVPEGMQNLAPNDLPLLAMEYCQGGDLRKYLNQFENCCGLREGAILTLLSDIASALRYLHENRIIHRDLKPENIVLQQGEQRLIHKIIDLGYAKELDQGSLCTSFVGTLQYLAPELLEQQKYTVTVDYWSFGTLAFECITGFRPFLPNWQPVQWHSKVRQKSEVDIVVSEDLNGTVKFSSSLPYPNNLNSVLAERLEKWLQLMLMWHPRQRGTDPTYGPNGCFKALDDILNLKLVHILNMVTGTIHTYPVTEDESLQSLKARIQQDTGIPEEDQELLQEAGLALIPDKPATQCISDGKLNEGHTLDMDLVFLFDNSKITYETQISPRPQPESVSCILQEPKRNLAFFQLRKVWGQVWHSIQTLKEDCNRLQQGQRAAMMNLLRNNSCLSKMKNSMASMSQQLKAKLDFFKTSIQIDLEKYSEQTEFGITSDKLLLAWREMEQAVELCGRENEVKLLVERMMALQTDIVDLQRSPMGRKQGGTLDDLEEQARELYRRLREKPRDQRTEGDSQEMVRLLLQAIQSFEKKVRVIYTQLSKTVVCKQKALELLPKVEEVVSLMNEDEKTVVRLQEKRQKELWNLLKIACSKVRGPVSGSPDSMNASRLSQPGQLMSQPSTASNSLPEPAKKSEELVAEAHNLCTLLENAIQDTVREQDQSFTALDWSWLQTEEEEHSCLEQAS

Row | IC50 [nM] | SMILES
1 | 25.1 | CNc1nc2[nH]c(-c3cccc(CNC(=O)CO)c3)cc2c2c1ncn2C
2 | 11 | CNc1nc2[nH]c(-c3cccc(CN)c3)cc2c2c1ncn2C

Reference: ChEMBL document CHEMBL2375326, “Novel IKKβ inhibitors discovery based on the co-crystal structure by using binding-conformation-based and ligand-based method” (Eur J Med Chem, 2013)
